These results are taken from PMC9458059, “Design, Synthesis and Biological Evaluation of New Carbohydrate-Based Coumarin Derivatives as Selective Carbonic Anhydrase IX Inhibitors via “Click” Reaction” (Molecules, 2022).

pIC50: −log10 of the molar value. Some results are limits rather than exact numbers.

Common to all, as to assay type: biochemical
What all share (settings): human recombinant enzyme, 4-nitrophenylacetate as substrate

Assay [1] deals with T1, hCA IX (Homo sapiens, UniProt Q16790).
T1 construct: purchased
Description: CA inhibition by the esterase assay, hCA IX.

For assay [2], the target named is T2, hCA I (Homo sapiens, UniProt P00915).
T2 construct: purchased
Description: CA inhibition by the esterase assay, hCA I.

Assay [3] concerns the target hCA II (Homo sapiens, UniProt P00918). Nature of the assay: CA inhibition by the esterase assay, hCA II.

With `O=c1ccc2ccc(O)cc2o1` [Umbelliferone, 7-hydroxy coumarin, reference compound], the pIC50 (commonly the negative decadic logarithm of the IC50, by convention in mol/L) in assay [1] was 6.30; in assay [2], under 4.00; in assay [3], under 4.00.
